Values quoted from earlier work, collected in patent US7517991B2, “N-sulfonylpiperidine cannabinoid receptor 1 antagonists” (Bristol-Myers Squibb Company, priority 2004, dated 2009).

Details: chronic administration for two weeks

Question: With `Cc1c(C(=O)NN2CCCCC2)nn(-c2ccc(Cl)cc2Cl)c1-c1ccc(I)cc1` [AM-251] as the molecule, how does the adipose tissue mass read?
Answer: decreased adipose tissue mass
